One may read the IC50 as the concentration needed to halve the response being measured.

By UniProt entry, the sequences of proteins in these tests, tags left out. Where a name states a change or a piece, a line headed by the entry shows the natural chain unless it says otherwise.
UniProt Q92887: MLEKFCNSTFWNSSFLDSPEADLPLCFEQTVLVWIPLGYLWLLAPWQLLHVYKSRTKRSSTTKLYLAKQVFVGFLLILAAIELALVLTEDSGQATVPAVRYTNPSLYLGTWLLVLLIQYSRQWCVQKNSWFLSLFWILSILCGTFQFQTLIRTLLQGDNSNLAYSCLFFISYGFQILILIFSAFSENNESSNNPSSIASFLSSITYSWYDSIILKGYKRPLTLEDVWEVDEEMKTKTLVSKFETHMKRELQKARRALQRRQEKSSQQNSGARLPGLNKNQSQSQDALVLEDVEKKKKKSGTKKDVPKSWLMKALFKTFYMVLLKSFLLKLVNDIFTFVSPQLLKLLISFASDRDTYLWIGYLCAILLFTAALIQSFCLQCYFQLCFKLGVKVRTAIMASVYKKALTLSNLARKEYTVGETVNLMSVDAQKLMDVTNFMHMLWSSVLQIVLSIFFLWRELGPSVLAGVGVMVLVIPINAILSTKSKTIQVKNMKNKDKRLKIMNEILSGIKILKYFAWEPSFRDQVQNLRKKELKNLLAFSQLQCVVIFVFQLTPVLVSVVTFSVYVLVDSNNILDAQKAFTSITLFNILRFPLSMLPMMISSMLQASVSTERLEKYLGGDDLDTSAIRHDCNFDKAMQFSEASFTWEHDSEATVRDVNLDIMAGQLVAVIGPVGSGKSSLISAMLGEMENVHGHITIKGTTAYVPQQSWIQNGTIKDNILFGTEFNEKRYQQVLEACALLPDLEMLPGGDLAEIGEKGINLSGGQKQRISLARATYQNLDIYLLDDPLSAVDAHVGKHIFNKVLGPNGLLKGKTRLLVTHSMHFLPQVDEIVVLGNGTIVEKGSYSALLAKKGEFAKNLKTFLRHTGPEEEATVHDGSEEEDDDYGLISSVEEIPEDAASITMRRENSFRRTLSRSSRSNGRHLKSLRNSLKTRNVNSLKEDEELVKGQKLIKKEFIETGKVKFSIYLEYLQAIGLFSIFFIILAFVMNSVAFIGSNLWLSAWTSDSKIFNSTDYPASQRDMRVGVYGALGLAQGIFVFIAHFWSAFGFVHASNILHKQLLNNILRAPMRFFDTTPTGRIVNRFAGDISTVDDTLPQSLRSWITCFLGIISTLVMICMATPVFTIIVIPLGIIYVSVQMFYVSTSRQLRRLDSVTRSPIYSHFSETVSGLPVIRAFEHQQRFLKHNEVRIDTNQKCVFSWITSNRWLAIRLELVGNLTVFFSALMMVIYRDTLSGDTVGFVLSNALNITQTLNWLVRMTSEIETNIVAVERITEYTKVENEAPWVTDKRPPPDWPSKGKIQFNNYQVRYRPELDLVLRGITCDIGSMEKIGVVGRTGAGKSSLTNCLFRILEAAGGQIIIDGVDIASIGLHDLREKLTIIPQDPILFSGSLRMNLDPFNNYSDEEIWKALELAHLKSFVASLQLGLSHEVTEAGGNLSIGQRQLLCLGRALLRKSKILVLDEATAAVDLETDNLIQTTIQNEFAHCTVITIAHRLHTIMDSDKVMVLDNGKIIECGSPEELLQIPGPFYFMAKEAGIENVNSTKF
UniProt O95342, whole entry: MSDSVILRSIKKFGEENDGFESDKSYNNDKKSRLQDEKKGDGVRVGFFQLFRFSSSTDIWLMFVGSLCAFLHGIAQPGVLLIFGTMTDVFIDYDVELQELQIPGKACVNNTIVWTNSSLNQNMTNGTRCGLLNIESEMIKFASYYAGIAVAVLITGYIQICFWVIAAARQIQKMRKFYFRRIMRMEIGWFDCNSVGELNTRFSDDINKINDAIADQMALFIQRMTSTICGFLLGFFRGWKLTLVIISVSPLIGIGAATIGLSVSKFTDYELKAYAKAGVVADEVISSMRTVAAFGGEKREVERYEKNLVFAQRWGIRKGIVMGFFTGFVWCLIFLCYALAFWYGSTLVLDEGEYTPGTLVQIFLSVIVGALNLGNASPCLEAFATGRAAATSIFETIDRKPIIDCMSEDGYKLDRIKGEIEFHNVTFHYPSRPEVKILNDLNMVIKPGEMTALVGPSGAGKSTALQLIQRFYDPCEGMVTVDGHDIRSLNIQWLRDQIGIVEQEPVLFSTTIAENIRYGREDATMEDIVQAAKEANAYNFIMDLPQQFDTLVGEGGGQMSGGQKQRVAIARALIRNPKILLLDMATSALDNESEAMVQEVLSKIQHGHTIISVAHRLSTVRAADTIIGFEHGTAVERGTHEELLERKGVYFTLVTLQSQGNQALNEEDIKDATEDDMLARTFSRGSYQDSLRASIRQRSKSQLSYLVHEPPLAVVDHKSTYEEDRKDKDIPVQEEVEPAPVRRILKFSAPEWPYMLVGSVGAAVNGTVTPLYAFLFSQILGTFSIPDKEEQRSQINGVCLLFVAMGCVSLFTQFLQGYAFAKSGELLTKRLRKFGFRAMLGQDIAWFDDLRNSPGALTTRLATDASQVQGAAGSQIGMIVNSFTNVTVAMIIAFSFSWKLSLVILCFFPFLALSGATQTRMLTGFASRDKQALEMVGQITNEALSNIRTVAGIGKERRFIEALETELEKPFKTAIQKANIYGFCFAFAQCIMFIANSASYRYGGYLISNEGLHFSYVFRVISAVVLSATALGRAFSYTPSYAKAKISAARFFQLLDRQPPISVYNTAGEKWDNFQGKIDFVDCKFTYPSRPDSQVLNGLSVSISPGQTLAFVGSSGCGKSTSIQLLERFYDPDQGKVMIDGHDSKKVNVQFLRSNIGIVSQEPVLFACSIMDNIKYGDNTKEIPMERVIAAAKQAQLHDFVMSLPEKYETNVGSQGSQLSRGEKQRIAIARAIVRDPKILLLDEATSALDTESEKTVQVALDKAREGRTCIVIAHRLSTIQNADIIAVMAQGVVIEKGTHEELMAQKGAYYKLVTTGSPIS
UniProt O15438: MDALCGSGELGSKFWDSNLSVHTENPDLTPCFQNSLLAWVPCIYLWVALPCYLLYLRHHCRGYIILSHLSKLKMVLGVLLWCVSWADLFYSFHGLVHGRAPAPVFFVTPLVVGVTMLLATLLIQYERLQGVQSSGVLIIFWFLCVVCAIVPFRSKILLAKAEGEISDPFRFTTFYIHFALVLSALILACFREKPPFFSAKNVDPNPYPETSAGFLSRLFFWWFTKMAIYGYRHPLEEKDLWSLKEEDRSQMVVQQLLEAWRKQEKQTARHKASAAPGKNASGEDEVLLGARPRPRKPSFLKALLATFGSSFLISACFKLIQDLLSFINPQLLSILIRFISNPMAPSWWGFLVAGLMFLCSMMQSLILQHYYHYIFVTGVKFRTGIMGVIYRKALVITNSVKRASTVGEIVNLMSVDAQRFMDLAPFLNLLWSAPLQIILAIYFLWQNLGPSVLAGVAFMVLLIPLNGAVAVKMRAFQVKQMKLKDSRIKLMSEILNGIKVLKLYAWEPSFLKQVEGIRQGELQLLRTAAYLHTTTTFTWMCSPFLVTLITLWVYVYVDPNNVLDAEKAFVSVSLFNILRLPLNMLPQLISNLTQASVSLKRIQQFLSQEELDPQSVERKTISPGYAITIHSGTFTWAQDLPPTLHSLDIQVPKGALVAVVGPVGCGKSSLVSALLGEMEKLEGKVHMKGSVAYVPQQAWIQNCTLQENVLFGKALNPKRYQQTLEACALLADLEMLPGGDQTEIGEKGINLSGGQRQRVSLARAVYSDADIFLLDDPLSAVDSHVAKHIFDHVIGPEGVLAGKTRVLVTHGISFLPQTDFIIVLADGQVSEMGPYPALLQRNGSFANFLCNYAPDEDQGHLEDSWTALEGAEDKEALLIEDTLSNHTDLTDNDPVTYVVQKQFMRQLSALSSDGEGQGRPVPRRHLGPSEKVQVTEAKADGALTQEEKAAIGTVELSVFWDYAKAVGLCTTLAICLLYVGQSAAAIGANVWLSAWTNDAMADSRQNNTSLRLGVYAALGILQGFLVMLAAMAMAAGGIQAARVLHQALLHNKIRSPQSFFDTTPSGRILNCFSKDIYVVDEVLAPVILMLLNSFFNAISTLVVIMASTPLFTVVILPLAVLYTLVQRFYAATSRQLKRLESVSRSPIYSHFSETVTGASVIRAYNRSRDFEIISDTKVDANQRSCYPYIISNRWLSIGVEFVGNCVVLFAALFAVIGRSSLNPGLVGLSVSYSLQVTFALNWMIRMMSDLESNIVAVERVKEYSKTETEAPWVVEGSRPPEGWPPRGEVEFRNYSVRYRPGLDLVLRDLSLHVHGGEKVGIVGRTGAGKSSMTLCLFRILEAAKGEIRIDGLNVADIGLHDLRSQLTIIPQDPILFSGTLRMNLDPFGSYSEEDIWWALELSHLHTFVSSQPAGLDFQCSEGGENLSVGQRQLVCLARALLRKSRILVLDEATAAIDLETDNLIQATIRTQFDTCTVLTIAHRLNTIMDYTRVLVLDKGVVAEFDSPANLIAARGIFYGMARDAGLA
UniProt O15439: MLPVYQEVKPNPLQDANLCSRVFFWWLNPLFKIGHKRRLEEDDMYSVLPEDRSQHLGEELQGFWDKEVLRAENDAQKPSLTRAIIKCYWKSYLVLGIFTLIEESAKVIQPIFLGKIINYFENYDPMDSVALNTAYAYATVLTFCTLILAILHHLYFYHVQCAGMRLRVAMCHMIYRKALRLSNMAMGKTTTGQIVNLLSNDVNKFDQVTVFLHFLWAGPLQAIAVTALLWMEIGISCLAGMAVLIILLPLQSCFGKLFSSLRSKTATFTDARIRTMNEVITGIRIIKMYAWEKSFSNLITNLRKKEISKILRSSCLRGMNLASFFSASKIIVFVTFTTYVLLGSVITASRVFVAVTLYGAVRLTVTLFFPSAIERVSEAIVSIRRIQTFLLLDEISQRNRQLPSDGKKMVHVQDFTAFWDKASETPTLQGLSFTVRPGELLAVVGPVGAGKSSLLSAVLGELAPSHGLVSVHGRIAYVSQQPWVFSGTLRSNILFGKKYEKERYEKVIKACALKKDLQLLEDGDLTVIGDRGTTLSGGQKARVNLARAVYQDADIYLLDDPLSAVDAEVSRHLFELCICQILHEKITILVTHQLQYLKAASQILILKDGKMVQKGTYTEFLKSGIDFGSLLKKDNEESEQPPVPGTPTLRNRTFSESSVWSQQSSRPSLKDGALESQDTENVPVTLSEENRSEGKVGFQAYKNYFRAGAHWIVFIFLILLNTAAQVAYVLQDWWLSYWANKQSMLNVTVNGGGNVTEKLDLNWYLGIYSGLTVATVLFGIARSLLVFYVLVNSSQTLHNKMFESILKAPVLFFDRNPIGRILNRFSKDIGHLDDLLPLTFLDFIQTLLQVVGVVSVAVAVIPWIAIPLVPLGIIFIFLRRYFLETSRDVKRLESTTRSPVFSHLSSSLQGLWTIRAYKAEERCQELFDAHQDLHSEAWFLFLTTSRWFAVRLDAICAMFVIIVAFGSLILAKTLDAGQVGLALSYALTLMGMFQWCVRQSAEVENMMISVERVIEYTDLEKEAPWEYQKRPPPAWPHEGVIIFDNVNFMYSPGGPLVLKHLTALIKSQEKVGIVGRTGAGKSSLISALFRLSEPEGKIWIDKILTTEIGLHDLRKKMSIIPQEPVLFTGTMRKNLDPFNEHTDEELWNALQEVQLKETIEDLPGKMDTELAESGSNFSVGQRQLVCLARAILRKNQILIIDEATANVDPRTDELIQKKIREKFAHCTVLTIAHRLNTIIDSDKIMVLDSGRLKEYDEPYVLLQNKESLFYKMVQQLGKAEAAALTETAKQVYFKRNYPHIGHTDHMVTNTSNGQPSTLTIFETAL

Experimental findings from BindingDB's records for doi:10.1093/toxsci/kft176 (Amgen, 2013) are described below.

Experiment [1] concerns the target ATP-binding cassette sub-family C member 2 (Homo sapiens, UniProt Q92887).
Experiment [2] concerns the target Bile salt export pump (Homo sapiens, UniProt O95342).
In experiment [3] the target is ATP-binding cassette sub-family C member 3 (Homo sapiens, UniProt O15438).
The target in experiment [4] is ATP-binding cassette sub-family C member 4 (Homo sapiens, UniProt O15439).

As to `Cc1cnc(C(=O)NCCc2ccc(S(=O)(=O)NC(=O)NC3CCCCC3)cc2)cn1` [Glucotrol xl], the IC50 in experiment [1], in experiment [2], in experiment [3] and in experiment [4] was greater than 133 µM in each case.
In experiment [1], `CC(C)c1c(C(=O)Nc2ccccc2)c(-c2ccccc2)c(-c2ccc(F)cc2)n1CC[C@@H](O)C[C@@H](O)CC(=O)O` [calcium bis{(3R,5R)-7-[3-(anilinocarbonyl)-5-(4-fluorophenyl)-2-isopropyl-4-phenyl-1H-pyrrol-1-yl]-3,5-dihydroxyheptanoate}] returned a concentration for half-maximal inhibition (IC50) greater than 133 µM.
